For this assay, the target named is estrogen receptor (Homo sapiens (Human), UniProt P03372). Briefly: 2×VIT ERE infection luciferase assay.

By UniProt entry, the sequences of proteins in these tests, tags left out.
UniProt P03372, whole entry: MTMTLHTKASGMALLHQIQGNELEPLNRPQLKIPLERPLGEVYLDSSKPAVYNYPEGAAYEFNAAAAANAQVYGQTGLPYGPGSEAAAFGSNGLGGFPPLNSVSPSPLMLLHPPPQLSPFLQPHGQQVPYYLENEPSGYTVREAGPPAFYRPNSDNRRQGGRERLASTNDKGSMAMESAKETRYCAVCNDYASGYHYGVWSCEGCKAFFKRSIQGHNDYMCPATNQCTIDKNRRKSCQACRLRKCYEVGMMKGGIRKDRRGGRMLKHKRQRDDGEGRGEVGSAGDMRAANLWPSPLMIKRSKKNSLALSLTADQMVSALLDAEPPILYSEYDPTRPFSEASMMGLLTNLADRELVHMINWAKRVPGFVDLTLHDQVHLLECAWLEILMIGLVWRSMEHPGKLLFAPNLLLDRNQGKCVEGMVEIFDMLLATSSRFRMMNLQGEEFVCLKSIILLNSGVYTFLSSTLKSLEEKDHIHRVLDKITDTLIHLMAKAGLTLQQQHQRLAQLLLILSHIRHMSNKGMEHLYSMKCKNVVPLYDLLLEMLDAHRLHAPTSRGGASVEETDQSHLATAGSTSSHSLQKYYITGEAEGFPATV

With `COc1ccc(-c2c(C)c3cc(OC)ccc3n2Cc2ccc(OCCN3CCCCCC3)cc2)cc1` [No. 91, 1-[4-(2-Azepan-1-yl-ethoxy)-benzyl]-5-methoxy-2-(4-methoxy-phenyl)-3-methyl-1H-indole], the “Infection Luciferase Activity, 1 uM + 17β estradiol” value (1 uM compound + 1 nM 17β-estradiol (estrogen antagonism)) stood at 56%. The “Infection Luciferase Activity, 1 uM” value (1 uM compound alone, percentage of activity as compared to 17β-estradiol) is listed as −3%.

The record behind these values is patent US8815934B2 (dated 2014).
